Data on 2 molecules can be found in paper PMC4556614 (PLoS ONE, 2015).

The chains behind the UniProt entries cited, without tags or fusion partners. Where a name states a change or a piece, a line headed by the entry shows the natural chain unless it says otherwise.
UniProt O15244: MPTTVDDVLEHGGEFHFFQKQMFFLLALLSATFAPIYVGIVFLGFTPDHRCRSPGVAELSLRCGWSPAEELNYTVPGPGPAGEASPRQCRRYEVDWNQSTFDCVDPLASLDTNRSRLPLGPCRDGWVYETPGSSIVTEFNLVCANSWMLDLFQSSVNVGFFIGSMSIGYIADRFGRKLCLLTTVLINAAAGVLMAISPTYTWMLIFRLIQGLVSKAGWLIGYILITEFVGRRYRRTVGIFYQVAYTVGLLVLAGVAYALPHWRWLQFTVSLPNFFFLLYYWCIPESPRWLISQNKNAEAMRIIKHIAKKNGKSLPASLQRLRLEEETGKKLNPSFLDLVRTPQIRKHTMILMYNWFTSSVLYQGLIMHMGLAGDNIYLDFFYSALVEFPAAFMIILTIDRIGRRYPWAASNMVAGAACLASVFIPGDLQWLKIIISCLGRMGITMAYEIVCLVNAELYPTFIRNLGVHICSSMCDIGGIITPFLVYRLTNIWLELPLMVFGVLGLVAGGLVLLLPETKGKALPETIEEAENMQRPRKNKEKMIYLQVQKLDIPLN

This data set addresses OCT2 (Homo sapiens, UniProt O15244). Put plainly: Inhibition of OCT2-mediated [14C]metformin uptake in HEK-OCT2 cells.

`Cc1nnc2n1-c1ccc(Cl)cc1C(c1ccccc1)=NC2` [Alprazolam]: the inhibition (in general, how much of the control response was suppressed) at 3 min, 200 µM (human, pH 7.3, % Inhibition of OCT2-dependent MF uptake at 200 µM (mean ± SEM), test drug 200 µM, metformin 1000 μM, 3 min, net uptake HEK-OCT2 minus HEK-VC) came to 88.3 ± 3.6%.

`NS(=O)(=O)c1cc2c(cc1Cl)NCNS2(=O)=O` [Hydrochlorothiazide]: where the note is “Fig 2, S1 and S2 Figs, 20 and 200 μM”, the “Effect on OCT2-mediated uptake of metformin and/or MPP+ (in words)” value is “stimulated”.
